Earlier results in patent publication US20140228218A1, “PARAFFINIC OIL AND CLASS B GIBBERELLIN BIOSYNTHESIS INHIBITOR COMPOSITIONS” (SUNCOR ENERGY INC., priority 2011, published 2014).

System: the plant being treated
Conditions: reported by B. Huang, GCM, January 2007

## CC(C)C(O)(c1ccc(OC(F)(F)F)cc1)c1cncnc1 (stereo not drawn) [flurprimidol, α-(1-methylethyl)-α-[4-(trifluoromethoxy)phenyl]-5-pyrimidinemethanol]
  phytotoxicity to the plant being treated (in words): can cause phytoxicity
